Values of other authors, collected in patent US20080199485A1 (priority 2007, published 2008).

Conditions: cited from earlier work

In the case of 5′-TCCATGACGTTCCTGAATAAT-3′, the half-life in tissues is given as 48 h.
